## Reported melting point values for industrial, environmental and drug-like chemicals

Values as listed in the OPERA 2.9 repository of K. Mansouri.

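OPERA's authors assembled the values from existing databases and did not measure them anew. The files give a single number for a compound and property, which may rest on several reports. Method and conditions are not stated for these values. Where a salt, mixture or single isomer is drawn, the source does not say that exactly this form was tested. Some entries may be limits or estimates that an upstream database listed as plain numbers.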

The melting point is given in degrees Celsius.
Cells with "–" have no entry in this list.

* CN(C)C(=O)c1ccc(C#N)cc1 [4-Cyano-N,N-dimethylbenzamide]: MP 94 °C
* O=Cc1ccc(OCCCC(F)(F)C(F)(F)C(F)(F)C(F)(F)C(F)(F)C(F)(F)C(F)(F)C(F)(F)F)cc1 [4-[3-(Perfluorooctyl)-1-propyloxy]benzaldehyde]: MP 62 °C
* O=C(O)C1CC1C(=O)O (centres undefined) [Cyclopropane-1,2-dicarboxylic acid]: MP 178 °C
* CN1CC(=O)NC(=O)C1 [4-Methylpiperazine-2,6-dione]: MP 100 °C
* CC(=O)NCCc1ccc(C(=O)O)cc1 [4-[2-(acetylamino)ethyl]benzoic acid]: MP 176 °C
* Cn1ccc(C(=O)O)cc1=O [1-methyl-2-oxo-1,2-dihydropyridine-4-carboxylic acid]: MP 220 °C
* COc1ccc(CC(=O)NN)cc1 [2-(4-Methoxyphenyl)acetohydrazide]: MP 133 °C
* Cc1cc(C(=O)O)c(C)n1-c1ccc(F)cc1 [1-(4-Fluorophenyl)-2,5-dimethyl-1H-pyrrole-3-carboxylic acid]: MP 233 °C
* COc1ccc(-c2n[nH]c(=S)o2)cc1 [5-(4-Methoxyphenyl)-1,3,4-oxadiazole-2-thiol]: MP 203 °C
* O=C(O)CC1CCS(=O)(=O)C1 (centres undefined) [(1,1-Dioxo-1lambda~6~-thiolan-3-yl)acetic acid]: MP 88 °C
* O=Cc1cc(F)c(O)cc1F [2,5-Difluoro-4-hydroxybenzaldehyde]: MP 146.5 °C
* O=C(Nc1ccc(O)cc1)c1ccccc1 [Benzamide, N-(4-hydroxyphenyl)-]: MP 216 °C
* NS(=O)(=O)c1ccc(F)c(C(=O)O)c1 [2-fluoro-5-sulfamoylbenzoic acid]: MP 187 °C
* O=c1nc[nH]c2cc(N3CCOCC3)c([N+](=O)[O-])cc12 [7-(Morpholin-4-yl)-6-nitroquinazolin-4(1H)-one]: MP 310 °C
* O=C(O)c1ccc2[nH]c(=O)c(=O)[nH]c2c1 [1,2,3,4-Tetrahydro-2,3-dioxoquinoxaline-6-carboxylic acid]: MP 251 °C
* C[N+](C)(C)CC(O)CC(=O)O.C[N+](C)(C)CC(O)CC(=O)O.O=C([O-])C(O)C(O)C(=O)[O-]: MP 179.4 °C
* O=P(N1CC1)(N1CC1)N(/N=C/c1ccccc1)c1ccccc1 [TEPA,N-benzyliden-N-Ph-hydrazin1yl]: MP 114 °C
* NS(=O)(=O)c1ccc2c(c1)CC(=O)N2 [2-oxoindoline-5-sulfonamide]: MP 253 °C
* COc1ccc(Cl)cc1CC(=O)O [(5-chloro-2-methoxyphenyl)acetic acid]: MP 132 °C
* O=C(O)c1scnc1Cl [4-Chloro-1,3-thiazole-5-carboxylic acid]: MP 246 °C
* CCOc1oc(-c2ccccc2)nc1C(=O)O [5-ethoxy-2-phenyl-1,3-oxazole-4-carboxylic Acid]: MP 148 °C
* O=[N+]([O-])c1cc(S(=O)(=O)Nc2ccccc2)ccc1Cl [Benzenesulfonamide, 4-chloro-3-nitro-N-phenyl-]: MP 88 °C
* NC(=O)N(c1ccccc1)c1ccccc1 [N,N-Diphenylurea]: MP 189 °C
* CC(=O)c1cnc2ccccc2n1 [2-Acetylquinoxaline]: MP 77.5 °C
* CCN(c1ccccc1)c1nc(Cl)nc(Nc2cc(S(=O)(=O)[O-])cc3cc(S(=O)(=O)[O-])c(/N=N/c4ccc5ccccc5c4S(=O)(=O)[O-])c(O)c23)n1.[Na+].[Na+].[Na+]: MP 153 °C
* NNc1nc(Cl)c(Cl)cc1Cl [2,3,5-Trichloro-6-hydrazinylpyridine]: MP 162 °C
* CN(C)c1ccc(C=O)s1 [5-(dimethylamino)thiophene-2-carbaldehyde]: MP 66 °C
* CC(C)NS(=O)(=O)c1ccc(Cl)c(C(=O)O)c1 [2-chloro-5-[(isopropylamino)sulfonyl]benzoic acid]: MP 148 °C
* CCOc1ccc(C(=O)NN)cc1OC [4-ethoxy-3-methoxybenzohydrazide]: MP 162 °C
* NNC1=c2cc(Cl)cc(Cl)c2=NC1=O [5,7-Dichloro-3-hydrazono-1,3-dihydro-indol-2-one]: MP 262 °C
* Nn1c(-c2cccs2)n[nH]c1=S: MP 218 °C
* Cc1ccc(C)c(NC(N)=S)c1 [Urea, 2-thio-1-(2,5-xylyl)-]: MP 141 °C
* COc1ccc(-c2cc(CBr)on2)cc1 [5-(bromomethyl)-3-(4-methoxyphenyl)isoxazole]: MP 89 °C
* O=CC1=Cc2cc(Br)ccc2OC1 [2H-1-Benzopyran-3-carboxaldehyde, 6-bromo-]: MP 104 °C
* Nc1ccc2c(c1)OC1(CCCCC1)O2: MP 66 °C
* Nc1ccccc1S(=O)(=O)N1CCOCC1 [2-(morpholin-4-ylsulfonyl)aniline]: MP 115 °C
* COS(=O)(=O)[O-].C[N+](CCO)(CCO)CCO: MP -46.5 °C
* O=[N+]([O-])c1ccc(S(=O)(=O)C(F)(F)F)cc1 [1-Nitro-4-(trifluoromethanesulfonyl)benzene]: MP 82 °C
* Cc1cc(C)n(CC(=O)O)n1 [(3,5-Dimethyl-pyrazol-1-yl)-acetic acid]: MP 188 °C
* O=C1CCn2cccc21 [3H-1,2-Dihydro-1-pyrrolizinone]: MP 55 °C
* Cc1cc(=O)n2c([nH]c3ccccc32)c1C#N: MP 271 °C
* CC1(C)CC[C@]2(C(=O)O)CC[C@]3(C)C(=CC[C@@H]4[C@@]5(C)C[C@@H](O)[C@H](O)C(C)(C)[C@@H]5CC[C@]43C)[C@@H]2C1 [Maslinic acid]: MP 249.5 °C
* CSCCC(N=C(O)OC(C)(C)C)C(=O)O (centres undefined) [N-[tert-Butoxy(hydroxy)methylidene]methionine]: MP 49.5 °C
* COc1ccc(C(C)=O)cc1CC(=O)O [(5-acetyl-2-methoxyphenyl)acetic acid]: MP 123 °C
* O=C(O)C1CCS(=O)(=O)C1 (centres undefined) [tetrahydrothiophene-3-carboxylic acid 1,1-dioxide]: MP 136 °C
* Cc1oc2c(F)c(F)c(F)c(F)c2c1C(=O)O [4,5,6,7-tetrafluoro-2-methyl-1-benzofuran-3-carboxylic acid]: MP 207 °C
* CCCC(=O)Nc1nc2ccc(N)cc2s1 [N-(6-amino-1,3-benzothiazol-2-yl)butanamide]: MP 183 °C
* O=C1C=CC(=O)N1C1CC1 [1-cyclopropyl-1H-pyrrole-2,5-dione]: MP 55 °C
* COC(=O)c1ccc(S(=O)(=O)Cl)cc1 [Methyl 4-(Chlorosulfonyl)benzoate]: MP 67.5 °C
* CCc1ccc2nc(N)sc2c1 [6-ethyl-1,3-benzothiazol-2-amine]: MP 106 °C
* COc1cc(C=O)cc(Cl)c1OCC(N)=O [2-(2-chloro-4-formyl-6-methoxyphenoxy)acetamide]: MP 168 °C
* CNc1ccc([N+](=O)[O-])cc1C(=O)O [2-(methylamino)-5-nitrobenzoic acid]: MP 262 °C
* CNc1ccc(Br)cn1 [5-Bromo-N-methylpyridin-2-amine]: MP 70 °C

Again, the 5 entries with the lowest MP:

compound	name	MP (°C)
COS(=O)(=O)[O-].C[N+](CCO)(CCO)CCO	–	-46.5
CSCCC(N=C(O)OC(C)(C)C)C(=O)O (centres undefined)	N-[tert-Butoxy(hydroxy)methylidene]methionine	49.5
O=C1CCn2cccc21	3H-1,2-Dihydro-1-pyrrolizinone	55
O=C1C=CC(=O)N1C1CC1	1-cyclopropyl-1H-pyrrole-2,5-dione	55
O=Cc1ccc(OCCCC(F)(F)C(F)(F)C(F)(F)C(F)(F)C(F)(F)C(F)(F)C(F)(F)C(F)(F)F)cc1	4-[3-(Perfluorooctyl)-1-propyloxy]benzaldehyde	62